Experimental data taken from patent publication US20110172305A1, “Endocannabinoids for Enhancing Growth and Development in Infants” (priority 2007, published 2011).

Assays:
[1] = Nipple attachment of pups after CB1 receptor blockade; type: in vivo, mouse (Sabra or ICR strain); conditions: pups of Sabra or ICR strain injected s.c. within 24 h of birth; FIG. 4
[2] = 'Lapping': food ingestion by licking from a dish, CB1 receptor-blocked pups; type: in vivo, mouse; conditions: pups allowed to lick milk/cream mixture rather than suck

Cc1c(C(=O)NN2CCCCC2)nn(-c2ccc(Cl)cc2Cl)c1-c1ccc(Cl)cc1 [Rimonabant]
nipple attachment score (0-2) [1]: scored almost zero
food intake (milkband size) after one session of lapping ([2]; FIG. 5A): completely normalized
body weight gain after one session of lapping ([2]; FIG. 5B): completely normalized
